Literature values as cited in EP1570862A1, “Highly soluble binary cyclodextrin inclusion complexes” (priority 2004, dated 2005).

Conditions: cited from earlier work

For γ-cyclodextrin, which water solubility is on record?
The water solubility was 23.2 g/100 ml.
